{
  "source": "patent US20030099983A1",
  "about": "“Cyclic and substituted immobilized molecular synthesis” (Affymetrix, Inc., priority 1991, published 2003)",
  "system": "monoclonal antibody D32.39",
  "settings": "relative fluorescence intensity of the corresponding surface-immobilized peptide (N-acetylated, C-terminal amide link to surface)",
  "data": [
    {"compound": "CC(=O)N[C@@H](Cc1ccccc1)C(=O)N[C@@H](CCCCN)C(=O)N[C@H](C(=O)N[C@H](C(=O)N[C@H](C(=O)O)[C@@H](C)O)C(C)C)C(C)C", "note": "[Ac-FKVVT-OH]", "values": [
      {"measurement": "Normalized Intensity (%)", "value": 13, "unit": "%"}
    ]}
  ]
}
